Experimental findings from patent US20050059610A1 (priority 2003, published 2005) are described below.

Molecules are shown by their SMILES.

The test has as its system endotoxin-induced sepsis. The test can be described thus: Lethal endotoxemia: survival, HSP expression, cytokine release. The note with it: rat, in vivo. As for the experimental part: GLN was administered concurrently with lethal doses of endotoxin.
Evaluation of pro-inflammatory cytokine release was also assessed following endotoxemia.

With `NC(=O)CC[C@H](N)C(=O)O` [GLN, Glutamine], the “IL-1 beta following endotoxemia” value is listed as “attenuated” and the TNF-alpha following endotoxemia entry is recorded as “attenuated”.
